75 compounds from PubChem BioAssay AID1222 (Sanford-Burnham Center for Chemical Genomics, 2008) can be followed below.

Some of the results follow. Potency and affinity values are given separately. Active and inactive are the calls of the source.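 How the source made its calls: active means EC50 below 50 µM in the dose-response confirmation; inactive means the rest.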

This test in a line: protection against thapsigargin-triggered cell killing – 384-well, CSM14.1, ATP luminescence, primary screen (AID 1222).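 Further: death triggered by thapsigargin at about 15 µM added after 2 h compound pretreatment; cell ATP read after overnight thapsigargin exposure of roughly 18 to 22 hours; reference of the scale not given here.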 To be noted: CSM14.1 thapsigargin-induced death rescue, at 20 µM, active compounds read high.
`O=P(Nc1ccccn1)(c1cccc2ccccc12)c1cccc2ccccc12`: the cellular ATP content (survival) was inactive: -0.8%.

With `Cc1cc(SC(NC=O)C(Cl)(Cl)Cl)ncn1` (stereo not given), the cellular ATP content (survival) is inactive: -1.7%.

With `Cc1cc(SC(NC(=O)c2ccccc2)C(Cl)(Cl)Cl)nc(C(C)C)n1` (stereo not given), the cellular ATP content (survival) is inactive: -0.6%.

As for `CCC(C)N(CC(C)C)C(=S)SC(NC(C)=O)C(Cl)(Cl)Cl` (stereo not given), the cellular ATP content (survival) was inactive: -3.2%.

As for `O=C(COc1ccccc1)OC1CN2CCC1CC2` (stereo not given), the cellular ATP content (survival) was inactive: -3.2%.

Regarding `COc1ccc(N/C(=N/P(=O)(N2CCOCC2)N2CCOCC2)N2CCOCC2)cc1`, the cellular ATP content (survival) was inactive: -0.9%.

Regarding `COc1ccc2nc(NP(=O)(c3ccccc3)c3ccccc3)sc2c1`, the cellular ATP content (survival) is inactive: -1.9%.

On to `Cc1cc(=O)[nH]c(N[N+](=O)[O-])n1`, for which the cellular ATP content (survival) was inactive: 0.6%.

With `O=C(OC1CN2CCC1CC2)C12CC3CC(CC(C3)C1)C2` (stereo not given), the cellular ATP content (survival) is inactive: -1.1%.

Regarding `Cc1c2c(nc3ccccc13)SC(C(Cl)Cl)C2` (stereo not given), the cellular ATP content (survival) is inactive: 1.4%.

In the case of `O=[N+]([O-])c1cc([N+](=O)[O-])c(-c2ccn[nH]2)s1`, the cellular ATP content (survival) was inactive: -3%.

Take `CCN(CC)C(=S)SC(NC=O)C(Cl)(Cl)Cl` (stereo not given): the cellular ATP content (survival) is inactive: 0.5%.

Take `CC(C)NC(=O)NP(=O)(Oc1ccccc1)Oc1ccccc1`: the cellular ATP content (survival) is inactive: -0.3%.

As for `ClCCSc1nnc(-c2cccnc2)o1`, the cellular ATP content (survival) was inactive: -0.6%.

Take `Cc1ccc2nc3c(c(C)c2c1)CC(C(Cl)Cl)S3` (stereo not given): the cellular ATP content (survival) was inactive: 0.1%.

`O=[N+]([O-])c1ccc2c(c1)nnn2O`: the cellular ATP content (survival) was inactive: -1.3%.

On to `CCOP1(=S)c2c(C)nn(CCC#N)c2N=C(c2ccc(F)cc2)N1C` (stereo not given), for which the cellular ATP content (survival) is inactive: 0.4%.

For `O=P(Nc1nccs1)(c1ccccc1)c1nc2ccccc2s1` (stereo not given), the cellular ATP content (survival) is inactive: 2.7%.

Take `O=P(Nc1nccs1)(Oc1ccccc1)Oc1ccccc1`: the cellular ATP content (survival) is inactive: -2.7%.

Take `CCOP1(=S)c2c(C)nn(CCC#N)c2N=C(c2ccccc2F)N1C` (stereo not given): the cellular ATP content (survival) was inactive: 1.2%.

For `CCOP(=O)(Nc1cccc2ccccc12)OCC`, the cellular ATP content (survival) was inactive: -1.3%.

Regarding `COc1cc(C2NCCC3(OCCO3)C2(C)C)cc(OC)c1OC` (stereo not given), the cellular ATP content (survival) is inactive: -1.3%.

Take `Cc1ccc(NCCc2c([N+](=O)[O-])cc([N+](=O)[O-])cc2[N+](=O)[O-])cc1`: the cellular ATP content (survival) is inactive: -0.1%.

Turning to `Cc1cccc(OCC(=O)OC2CN3CCC2CC3)c1` (stereo not given), the cellular ATP content (survival) is inactive: 2.6%.

Turning to `CN(C(=O)Cc1ccc(Cl)c(Cl)c1)[C@@H]1CCCC[C@H]1N1CCCC1`, the cellular ATP content (survival) is inactive: -1.7%.

`Clc1n[nH]nc1-c1nn[nH][15n]1`: the cellular ATP content (survival) was inactive: -0.4%.

Take `O=P1(Nc2ccccn2)COc2ccccc2OC1`: the cellular ATP content (survival) is inactive: -0.6%.

Take `O=P1(Nc2ccc(Br)cn2)COc2ccccc2OC1`: the cellular ATP content (survival) was inactive: 1.3%.

In the case of `Cc1ccc(OCC(=O)OC2CN3CCC2CC3)cc1` (stereo not given), the cellular ATP content (survival) was inactive: -2.9%.

For `O=P1(Nc2ncccn2)COc2ccccc2OC1`, the cellular ATP content (survival) was inactive: -5.3%.

`CC1CCC(C(C)C)C(OP(=O)(Nc2ccccn2)c2ccccc2)C1` (stereo not given): the cellular ATP content (survival) is inactive: 0.5%.

With `Cc1nn(-c2ccccc2)c2c1P(=O)(N1CCOCC1)N(C)C(c1ccccc1)=N2` (stereo not given), the cellular ATP content (survival) is inactive: -1.3%.

In the case of `C(Cc1nn[nH]n1)Cc1nn[nH]n1`, the cellular ATP content (survival) was inactive: -2.8%.

As for `O=C(OC1CN2CCC1CC2)c1cccc(Cl)c1` (stereo not given), the cellular ATP content (survival) was inactive: 1.4%.

On to `CC(=O)NC(SC(=S)N(C)C)C(Cl)(Cl)Cl` (stereo not given), for which the cellular ATP content (survival) is inactive: -0.8%.

For the compound `O=P(Nc1ccccn1)(c1ccc(Br)cc1)c1ccc(Br)cc1`, the cellular ATP content (survival) is inactive: -1.1%.

For the compound `c1nnnn1CCn1cnnn1`, the cellular ATP content (survival) is inactive: -3%.

For `CC(C)C(=O)NC(Sc1ccccc1)C(Cl)(Cl)Cl` (stereo not given), the cellular ATP content (survival) is inactive: -1.9%.

On to `O=P(Nc1nccs1)(c1ccccc1)c1ccccc1`, for which the cellular ATP content (survival) was inactive: -2.1%.

`CC(=O)Nc1ccc(Oc2c([N+](=O)[O-])cc([N+](=O)[O-])cc2[N+](=O)[O-])cc1`: the cellular ATP content (survival) is inactive: -0.1%.

Consider `CC(C)(C)C(=O)NC(Sc1ccccc1)C(Cl)(Cl)Cl` (stereo not given), for which the cellular ATP content (survival) was inactive: -6%.

Take `CCOc1ccc(C2=NCC(CBr)S2)cc1` (stereo not given): the cellular ATP content (survival) is inactive: 2.3%.

Turning to `O=P1(Nc2nc3ccc(Cl)cc3s2)COc2ccccc2O1` (stereo not given), the cellular ATP content (survival) was inactive: -0.8%.

In the case of `O=c1c2cc([N+](=O)[O-])ccc2[nH]c2c([N+](=O)[O-])cc([N+](=O)[O-])cc12`, the cellular ATP content (survival) is inactive: 4.6%.

Take `CC(=O)NC(SC(=S)N(CC(C)C)CC(C)C)C(Cl)(Cl)Cl` (stereo not given): the cellular ATP content (survival) was inactive: -3.3%.

For the compound `Cc1ccc(OP(=O)(Nc2ccccn2)Oc2ccc(C)cc2)cc1`, the cellular ATP content (survival) was inactive: 3.1%.

Regarding `COC(=O)c1cc2c(s1)N=C(c1ccccc1)N(C)P2(=O)N1CCOCC1` (stereo not given), the cellular ATP content (survival) was inactive: -0.1%.

As for `CCC(=O)N1C2C3N(C(=O)CC)C1C1N(C(=O)CC)C(C(N1C(=O)CC)N3C(=O)CC)N2C(=O)CC`, the cellular ATP content (survival) is inactive: 1.4%.

On to `CCNC(=S)/N=C(\N)N[N+](=O)[O-]`, for which the cellular ATP content (survival) was inactive: 0.1%.

On to `O=C(NC1CCS(=O)(=O)C1)NP(=S)(Oc1ccccc1)Oc1ccccc1` (stereo not given), for which the cellular ATP content (survival) was inactive: -0.3%.

Take `CCOC(=O)NC(Sc1ccccc1)C(Cl)(Cl)Cl` (stereo not given): the cellular ATP content (survival) was inactive: -1.7%.

On to `c1ccc(-c2nn[nH]n2)c(-c2nn[nH]n2)c1`, for which the cellular ATP content (survival) is inactive: -1.8%.

As for `CCN(N=Nc1nonc1N)c1nonc1N`, the cellular ATP content (survival) is inactive: 0.2%.

For the compound `CCOP(=O)(Nc1ccccc1)OCC`, the cellular ATP content (survival) is inactive: 3.3%.

Consider `Cc1cc(SC(NC(=O)c2ccc(F)cc2)C(Cl)(Cl)Cl)ncn1` (stereo not given), for which the cellular ATP content (survival) is inactive: -0.8%.

As for `CC(C)CC(=O)NC(Sc1ccc(Cl)cc1)C(Cl)(Cl)Cl` (stereo not given), the cellular ATP content (survival) was inactive: -0.1%.

Regarding `Cc1c2non([O-])c-2c(C)[n+](=O)[n+]1[O-]`, the cellular ATP content (survival) was inactive: -7.8%.

For the compound `O=C(NC(Sc1ccncn1)C(Cl)(Cl)Cl)c1ccccc1` (stereo not given), the cellular ATP content (survival) is inactive: 1.9%.

Turning to `Oc1ccccc1CNc1ccccn1`, the cellular ATP content (survival) is inactive: -1.1%.

On to `COc1ccccc1OP(=O)(Nc1ccc(C)cn1)Oc1ccccc1OC`, for which the cellular ATP content (survival) was inactive: -0.2%.

Regarding `Clc1ccc(Cl)c(NC2=NCC(CBr)S2)c1` (stereo not given), the cellular ATP content (survival) is inactive: -0.3%.

As for `CN1CCCC(OC(=O)C(c2ccccc2)c2ccccc2)C1` (stereo not given), the cellular ATP content (survival) is inactive: -0.8%.

For `NC(=O)c1cc([N+](=O)[O-])cc([N+](=O)[O-])c1N`, the cellular ATP content (survival) is inactive: -1.9%.

For the compound `Cc1ccc(N/C(=N/P(=O)(N2CCOCC2)N2CCOCC2)N2CCOCC2)cc1`, the cellular ATP content (survival) is inactive: 0.5%.

Consider `CN(C)C(=O)OCCc1n(C)cc[n+]1C`, for which the cellular ATP content (survival) is inactive: -2.6%.

Consider `CC(C)=N/N=C(\N)N[N+](=O)[O-]`, for which the cellular ATP content (survival) was inactive: -1%.

As for `CC1CCN(C(=O)Oc2c(Cl)cc(Cl)c3cccnc23)CC1`, the cellular ATP content (survival) was inactive: -0.8%.

As for `CCN(/C(=N/P(=O)(N1CCOCC1)N1CCOCC1)N1CCOCC1)c1ccc(OC)cc1`, the cellular ATP content (survival) was inactive: -0.2%.

For `O=[N+]([O-])c1cccc2n[nH]nc12`, the cellular ATP content (survival) was inactive: -2.9%.

As to `CC(=O)N1C2C3N(C(C)=O)C1C1N(C(C)=O)C(C(N1C(C)=O)N3C(C)=O)N2C(C)=O`, the cellular ATP content (survival) was inactive: -0.8%.

On to `CCc1nc2c(n1)c1c(non1O)c1c2no[n+]1[O-]`, for which the cellular ATP content (survival) is inactive: 0%.

In the case of `O=[N+]([O-])c1cc([N+](=O)[O-])c(CCNc2ccccc2)c([N+](=O)[O-])c1`, the cellular ATP content (survival) is inactive: -0.6%.

`Cc1ccc(NP(=O)(Oc2ccccc2)Oc2ccccc2)nc1`: the cellular ATP content (survival) was inactive: -0.9%.

In the case of `COc1ccc(C2=NCC(CBr)S2)cc1` (stereo not given), the cellular ATP content (survival) is inactive: 1.7%.

For the compound `O=[N+]([O-])c1ncn(CCn2ncnc2[N+](=O)[O-])n1`, the cellular ATP content (survival) was inactive: -0.8%.
